The target of the experiment is human mu opioid receptor (Homo sapiens, UniProt P35372). To be noted: [3H]-Diprenorphine 0.5 nM, CHO-K1 membranes.

Protein sequences, listed by entry. Tags and fused reporters are not part of them. Lines headed by an entry give the natural chain unless they say otherwise; changes in a name come on top.
UniProt P35372: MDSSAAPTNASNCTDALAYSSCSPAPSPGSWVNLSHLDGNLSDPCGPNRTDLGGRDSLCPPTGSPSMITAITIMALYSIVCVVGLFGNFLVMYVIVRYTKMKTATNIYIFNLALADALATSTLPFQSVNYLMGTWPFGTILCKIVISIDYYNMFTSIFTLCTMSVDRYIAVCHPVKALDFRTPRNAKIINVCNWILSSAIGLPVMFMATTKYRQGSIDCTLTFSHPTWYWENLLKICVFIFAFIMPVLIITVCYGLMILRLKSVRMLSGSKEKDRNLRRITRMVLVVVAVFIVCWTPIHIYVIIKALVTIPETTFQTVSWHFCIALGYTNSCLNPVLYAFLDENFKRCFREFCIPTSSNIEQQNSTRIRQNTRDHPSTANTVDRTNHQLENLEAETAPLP

With “3-endo-(8-{2-[(2-ethylbutyl)-((S)-2-hydroxypropionyl)-amino]ethyl}-8-azabicyclo[3.2.11oct-3-yl)-benzamide”, the “pKi at the human mu opioid receptor” value turned out to be 9.7.

The pKi is −log10 of the Ki, conventionally taken in molar units. The low end stands for a high Ki, the high end for a low Ki.

These data come from patent US8518966B2, “Amidoalkyl-8-azabicyclo[3.2.1]octane compounds as mu opioid receptor antagonists” (Theravance, Inc., priority 2007, dated 2013).
